# Apparent affinities of Ab-14 variants for a coronavirus HR2 peptide

Values reported by Engelhart et al. 2022, doi:10.1038/s41597-022-01779-4 (FLAb copy).

Binding partner: SARS-CoV-2 spike HR2 peptide, sequence PDVDLGDISGINAS.

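The starting antibody came from a phage panning campaign against this peptide. Library AAYL50 holds single substitutions and randomly drawn double and triple substitutions in the CDRs. The assay is AlphaSeq: two haploid yeast populations carry antibody and antigen on their surface. Mating (16 h, 30 °C) was followed by selection of diploids and sequencing of their barcodes. A regression on co-assayed BCL2-family reference pairs converts the normalised counts of each replicate to an apparent Kd. Mating was done three times.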

Each scFv is VH, a (GGGGS)3 linker, VL, as in the parent Ab-14, and differs from it in the CDRs of the light chain only.
VH: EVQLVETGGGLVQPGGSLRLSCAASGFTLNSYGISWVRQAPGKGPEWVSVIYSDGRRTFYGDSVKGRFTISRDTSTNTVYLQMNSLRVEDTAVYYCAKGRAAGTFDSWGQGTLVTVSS
VL: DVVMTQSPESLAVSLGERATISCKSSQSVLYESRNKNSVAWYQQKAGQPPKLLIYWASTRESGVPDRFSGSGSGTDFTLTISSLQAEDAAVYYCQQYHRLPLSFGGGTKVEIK

Each variant is given by its three light chain CDRs, as the data file delimits them; those of the parent are KSSQSVLYESRNKNSVA, WASTRES, QQYHRLPLS. All variants listed here change S58 of the VL, counted from its first residue. Scale: log10 of Kd in nM, estimated from mating counts; low values are strong binders. Replicates are averaged; those with no signal do not enter the mean. "nd" marks a missing value. The strain was present, yet no cells mated with the target were sequenced in any replicate, which points to weak or no binding. Parent in this assay: reference entry 0.65, copy in this library 1.68. Background: pairings of library AAYL50 with three empty control strains gave a value in 18% of cases (median 4.19, 5th percentile 2.99). Values in that range, when seen in few replicates, are hard to tell from nonspecific mating.

| CDR-L1 | CDR-L2 | CDR-L3 | log10 Kd (nM), mean | seen in |
|---|---|---|---|---|
| SSSQSVLYESRNKNSVA | WANTRES | QQYHRLPLS | nd | 0 of 3 |
| KSSQSVLYESRNKNSVS | WAMTRES | QQYHRRPLS | nd | 0 of 3 |
| KSSQSVLYESRNKNEVA | WANTRES | QQYHRLPMS | nd | 0 of 3 |
| KSSQSVLYESRNKNSVA | WAFTRES | EQYHRLMLS | nd | 0 of 3 |
| KSSQSVLYESRNKNSVA | WVVTVES | QQYHRLPLS | 4.71 | 2 of 3 |
| KSSQSVLYESRNKNSVA | WACTRES | QPYHRLWLS | nd | 0 of 3 |
| KSSQSVLYISRNKNSVA | WFQTRES | QQYHRLPLS | nd | 0 of 3 |
| KSDQSVLYESRNKNSVA | WAWTRES | QQYHRLPLS | 3.25 | 3 of 3 |
| KISQSVLYESRNKNSVA | CACTRES | QQYHRLPLS | 3.06 | 2 of 3 |
| KSSQSVLYESRNKNSVA | WAMTTES | SQYHRLPLS | nd | 0 of 3 |
| KSSQSVLYESRNRNSVA | WAETRES | TQYHRLPLS | 0.79 | 3 of 3 |
| KSSQSVLYESRNKNSVA | WAETRES | QQYHRLPLN | 1.99 | 3 of 3 |
| KSSQSVLYESRNKNSVA | WAIDRES | QQDHRLPLS | nd | 0 of 3 |
| KSSQSVLYESRLKNSVA | WAITRES | QQYHRLPLS | 2.46 | 3 of 3 |
| KSHQSVLYESRNKNSVA | WANTRES | QQYHRAPLS | nd | 0 of 3 |
| KSSQSVLYESRNKNSVA | WAHTRES | LAYHRLPLS | 3.05 | 1 of 3 |
| KSSQSVLYESRNKNSVA | WATTRES | QQYHAPPLS | nd | 0 of 3 |
| KSSQSVLYESRNKYSVA | WANTRES | QQYHRLPLS | 4.79 | 1 of 3 |
| VSSQSVLYESRNKNSVA | WACTRES | QQYHRLWLS | 3.42 | 1 of 3 |
| KSSQSVLYESWNKNSVA | WAKTRES | QEYHRLPLS | 0.98 | 3 of 3 |
| KSSQCVLYESRNKNSVA | WAVTRES | TQYHRLPLS | nd | 0 of 3 |
| KSSQSVLYESRNKNSVA | WAQTRES | QQYHRLPLS | nd | 0 of 3 |
| KFSQSVLYESRNKKSVA | WAHTRES | QQYHRLPLS | 0.88 | 3 of 3 |
| KSSQSVLYESRNGNSVA | WAYTRES | QQYHRTPLS | 1.60 | 3 of 3 |
| KSSQSVLYESRNKNSVA | WAYTRES | QEYHRMPLS | 3.74 | 3 of 3 |
| KSSQSVYYESRNKNSVA | WAHTRES | QQYHRLPLI | 2.22 | 3 of 3 |
| KSSQSVLYESRNKNSVA | WQRTRIS | QQYHRLPLS | 5.21 | 1 of 3 |
| KSSQSVLYESRNKNSVA | QAATRES | QQYHRLPWS | nd | 0 of 3 |
| KSSQSVLYESRNKGSVS | WAYTRES | QQYHRLPLS | 3.71 | 2 of 3 |
| KSSQSVLYESRNKNSVA | WADTPES | QQYSRLPLS | 1.51 | 3 of 3 |
| KMSQSVGYESRNKNSVA | WARTRES | QQYHRLPLS | 0.48 | 3 of 3 |
| KHSHSVLYESRNKNSVA | WAGTRES | QQYHRLPLS | 2.74 | 3 of 3 |
| KSSQSRLYESRNKQSVA | WATTRES | QQYHRLPLS | 1.67 | 3 of 3 |
| KHSQSVLYESRNKNSVA | WAETRES | QQYHRLPLG | 3.61 | 1 of 3 |
| KSSQSVLTESRNKNSVA | WAEYRES | QQYHRLPLS | 2.91 | 3 of 3 |
| KSSQSVLYESRNPNSVA | WACTRES | QMYHRLPLS | 1.77 | 3 of 3 |
| KGSQSVLYESRNKNSVA | NAVTRES | QQYHRLPLS | -0.19 | 3 of 3 |
| KSSQSVLEESRNKNSVA | WPATRES | QQYHRLPLS | 4.94 | 1 of 3 |
| KSSQSVLYESENKNSVA | WALTRES | QNYHRLPLS | nd | 0 of 3 |
| KESQSVLYESRNKNSVA | WANTRES | QQYHRLPLS | 1.20 | 3 of 3 |
| KSSQSVLYESRNKNSVA | WAPTRES | QQIHRLPTS | 3.96 | 1 of 3 |
| KSSQSVLYESRNKNHVA | WAPTRES | QQYHRYPLS | nd | 0 of 3 |
| KSSQSVLYESSNKNSVA | WARTRES | QQYHRIPLS | 2.01 | 3 of 3 |
| KSSQSVLYESRNKNSVA | WAQTRES | QQYPRLFLS | 1.20 | 3 of 3 |
| KSWQSVLYESRNKNSVA | WAGTRES | NQYHRLPLS | 3.45 | 1 of 3 |
| KSSQSVLTESRNKNSVA | WAQTRES | QQYHELPLS | 1.62 | 3 of 3 |
| KSSQSVLYESRNKNSVA | WAWTRES | QFYHRLPLT | 2.82 | 1 of 3 |
| KSSQSVLYESRNKNSVS | WAWTRES | QQYHRLPLS | 4.19 | 1 of 3 |
| KSSQSVLYESRNKNSVA | WAYTRWS | QLYHRLPLS | nd | 0 of 3 |
| KSSQSVLYESRNKNSVV | WAYRRES | QQYHRLPLS | nd | 0 of 3 |
| KSSQSVLYESRNKNSVA | WFCTRES | QQYHRLPIS | nd | 0 of 3 |
| KSSQSVLDEHRNKNSVA | WATTRES | QQYHRLPLS | 0.57 | 3 of 3 |
| KSSQSVLYESRNKNSVA | WAATRES | QQYHRLKLS | nd | 0 of 3 |
| KSSQSVLYESRSKNSVA | WAGTRES | QQYHRLPLN | nd | 0 of 3 |
| KSSQSVLTESRNKNSVA | WAETRES | QQYSRLPLS | 0.90 | 3 of 3 |
| KSSQSVLYESRNCDSVA | WAQTRES | QQYHRLPLS | 1.68 | 3 of 3 |
| KSSQSVLYELRNKNSVA | WMHTRES | QQYHRLPLS | 3.96 | 3 of 3 |
| KSSQSVLYESRNKNSVA | GAWTVES | QQYHRLPLS | nd | 0 of 3 |
| KSPQSVLYESRDKNSVA | WATTRES | QQYHRLPLS | 1.65 | 3 of 3 |
| KSSQSVVYESRNKNSVA | WAETMES | QQYHRLPLS | nd | 0 of 3 |
| KSSQSVLYESRNVNSVA | WDETRES | QQYHRLPLS | 4.99 | 2 of 3 |
| KSSQTVLYESRNKNWVA | WAATRES | QQYHRLPLS | nd | 0 of 3 |
| KSSQSVLYESRNKNDVA | WAWYRES | QQYHRLPLS | 2.48 | 3 of 3 |
| KSSQSVLSESRNKNSVA | WAQTRES | QQYHRLPMS | 2.87 | 3 of 3 |
| KSSTSVLYESHNKNSVA | WATTRES | QQYHRLPLS | 0.30 | 3 of 3 |
| KSSQSVLYPSRNKNSVA | WALTRES | QQYHRLYLS | nd | 0 of 3 |
| KSSQSVHYESRNKMSVA | WALTRES | QQYHRLPLS | nd | 0 of 3 |
| KSSMSVLYESRNKNSVA | WAPTRES | QQYHRLLLS | nd | 0 of 3 |
| KSSQSVLYEQRNKNSVA | WARTRES | QQYHRLPLS | 2.45 | 3 of 3 |
| KSSQSVLYEDRNKNSVA | WAHTRES | QQMHRLPLS | 4.03 | 2 of 3 |
| KSSQSVLYESRPKNWVA | WACTRES | QQYHRLPLS | 3.31 | 1 of 3 |
| KSSASVLYESRIKNSVA | WAGTRES | QQYHRLPLS | 2.91 | 2 of 3 |
| KSSQSVLYESRNKNSVA | WALTRES | QQYHRLPLS | 2.35 | 3 of 3 |
| KSSQSVLYESRNKNSVA | WARTREP | QQYHALPLS | 3.09 | 1 of 3 |
| KYSQKVLYESRNKNSVA | WAQTRES | QQYHRLPLS | 1.36 | 3 of 3 |
| KSSQSVLYESRNKNSVP | WAETLES | QQYHRLPLS | nd | 0 of 3 |
| KSSQSVLYESRNKNSVA | WKLTRES | QQYHRLPLE | nd | 0 of 3 |
| KSSQSVLYESRNKNSVA | WADTRFS | QQYCRLPLS | 4.98 | 1 of 3 |

8 of these entries, quoted again:

CDR-L1	CDR-L2	CDR-L3	log10 Kd (nM), mean	seen in
SSSQSVLYESRNKNSVA	WANTRES	QQYHRLPLS	nd	0 of 3
KSPQSVLYESRDKNSVA	WATTRES	QQYHRLPLS	1.65	3 of 3
KSSQSVLYESRNKNSVA	WACTRES	QPYHRLWLS	nd	0 of 3
KSSQSVLTESRNKNSVA	WAEYRES	QQYHRLPLS	2.91	3 of 3
KSSQSVLYESRNKNSVA	WAWTRES	QFYHRLPLT	2.82	1 of 3
KSSQSRLYESRNKQSVA	WATTRES	QQYHRLPLS	1.67	3 of 3
KSSQSVLDEHRNKNSVA	WATTRES	QQYHRLPLS	0.57	3 of 3
KSSQSVLYESRNKNSVS	WAMTRES	QQYHRRPLS	nd	0 of 3